# From publication PMC5859971 (Genes & Development, 2018)
# Assays:
# HCT116-PHF5A^WT = assay: CellTiter-Glo viability assay, HCT116-PHF5A^WT; assay type: cell-based, human
# Experimental: To further validate the pose of the compound, we analyzed the activity of several related chemical probes using the SPA with the purified protein complex ([Teng et al. 2017]). The SPA is formatted as a competition assay in which the purified protein complex is captured on a bead containing scintillant, incubated with test compounds over a dose response, and then competed off with a fixed concentration of ^3H-Plad compound. IC50 curves are then measured from the resulting light emitted from the bead (Table 1; Supplemental Fig. S4). In addition, we tested the probes in viability assays in two engineered cell lines: HCT116-PHF5A^WT and the sensitization line HCT116-PHF5A^R38C (Table 1; Supplemental Fig. S5). […]
# Parental HCT116 cells were obtained from American Type Culture Collection and cultured in RPMI 1640 medium supplemented with 10% fetal bovine serum. […] Dose response was measured in 11-point serial dilutions with a top dose of 10 µM. […] Seventy-two hours after dosing, CellTiter-Glo reagent was added, incubated, and assayed on an EnVision multilabel reader (PerkinElmer). Luminescence values from each treatment were normalized to the average value of the respective DMSO control. The dose response curve plots were generated in GraphPad Prism, and GI50 values were calculated from nonlinear regression analysis. […]
# [1] = system: splicing of Ad2.2 pre-mRNA substrate; assay: In vitro splicing (IVS) assay, Ad2.2 substrate, HeLa S3 nuclear extracts, RT-qPCR; assay type: biochemical, human; settings: Ad2.1 and Ad2.2 substrates compared
# Excerpt: A substrate competitive mechanism of action (MOA) would predict that weaker pre-mRNA substrates would be easier to inhibit than stronger substrates. To date, it has not been possible to evaluate substrate competition using traditional steady-state conditions because splicing reactions are thought to be single-turnover events in vitro, and therefore it is not possible to measure a KM for the pre-mRNA. […] Specifically, we engineered the strong in vitro splicing substrate Ad2.1 by enhancing the U2 snRNP base-pairing around the BPA found in the Ad2 substrate. We then engineered a weaker substrate, Ad2.2, by adding a decoy BPS lacking an extrahelical adenosine (Ad2.2) (Fig. 5A; Supplemental Vector NTI files; [Corrionero et al. 2011]). […] We then evaluated E7107 and several chemical probes to better understand their mechanism.
# Figure 5. […] (A) Base-pairing logic for IVS substrates. (BPRS) Branch point recognition sequence in U2 snRNA; (BPS) the BPS in the pre-mRNA. The Ad2 gene BPS sequence (UACUUAU) was modified (UACUAAU) to strengthen the U2 base-pairing interactions flanking the BPA, leading to the Ad2.1 substrate (BPA in red). The Ad2.2 sequence has the same BPS as Ad2 but also contains a 5′ decoy BPS sequence (lacking an extrahelical adenine) that can base-pair with the BPRS. […]
structure (smiles),measurement,setting,value
CCC(O)C(C)C1OC1CC(C)(O)C=CC=C(C)C1OC(=O)CC(O)CCC(C)(O)C(OC(C)=O)C=CC1C (centres unmarked) [Plad D],loss of potency relative to E7107 in viability assays,HCT116-PHF5A^WT,~10 fold
same,inhibition of strong and weak IVS substrates,[1],inhibit both the strong and weak substrates equally well
